# Measured affinities in a library of Ab-14 heavy chain variants

Source: Li et al. 2023 (doi:10.1038/s41467-023-39022-2), MIT Lincoln Laboratory and A-Alpha Bio; data file from the FLAb repository.

Antigen: PDVDLGDISGINAS, a 14-residue peptide of the SARS-CoV-2 spike HR2 region.

Parent: Ab-14, a human scFv built as VH, three GGGGS repeats, VL. Only the CDRs of the heavy chain vary.
VH: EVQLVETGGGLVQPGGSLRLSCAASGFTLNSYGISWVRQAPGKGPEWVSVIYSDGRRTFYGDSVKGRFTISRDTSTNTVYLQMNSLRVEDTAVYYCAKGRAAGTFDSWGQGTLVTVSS
VL: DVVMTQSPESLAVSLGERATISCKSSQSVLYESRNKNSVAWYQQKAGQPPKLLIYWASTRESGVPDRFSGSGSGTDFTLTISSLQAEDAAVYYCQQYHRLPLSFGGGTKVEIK

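Phage display of a naive human antibody library on the peptide gave the parent. These sequences belong to a second round, designed from the earlier measurements on random variants of the parent. Several design methods are mixed in this list. Affinity was read by AlphaSeq, a pooled yeast mating assay with surface-displayed partners. After mating in shaken culture at 30 °C for 16 h, diploids were selected and their barcode pairs sequenced. The ratio of observed to expected reads was calibrated, replicate by replicate, on BCL2-family standards whose Kd was known from biolayer interferometry. Mating was done six times.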

Variants are written as CDR1, CDR2 and CDR3 of the heavy chain (limits as in the source). Parent: GFTLNSYGIS, VIYSDGRRTFYGDSVK, GRAAGTFDS. This list holds designs with at most six substitutions. Affinities are written as log10 Kd with Kd in nM; a lower number is a better binder. An entry "nd" has no value in the source: the pair was not observed among the diploids in that replicate. This suggests poor binding but is not conclusive. A sequence that the file lists under several names has all its replicates listed entry by entry, parted by semicolons. Values of this round are not directly comparable with the first-round values of the same sequences. Empty control strains, which show no peptide, gave a signal in 1% of pairings with all heavy chain designs; the median was 2.08 and 95% of these signals were weaker than 0.84. No background was subtracted. Also given: how often the same scFv was detected with the empty control strains. The parent sequence was in this pool as ten entries: three were never detected, three once, and four in most replicates, with averages from 0.34 to 2.37. The authors' rule: three or more of the six replicates give a measured affinity, fewer mean a poor binder.

GFTLNEYGIS, VIYSDGRRTFYGESVK, GRAAVTFDL: nd, nd, nd, nd, nd, nd (controls 0 of 18).
GFSLNSYGIS, VIYSDGRRTFYGDRVK, GQEAGTFDS: -0.01, 0.04, 0.09, -0.24, 0.79, -0.59 (controls 0 of 18).
GFTLNEYGIS, VIIFDGRRTFYDDSVK, GRFAGTFDS: nd, nd, nd, nd, nd, nd (controls 1 of 18).
GFTLNEYGIS, VIYSDGRRTFYGDSFK, GRAAVTPDQ: nd, nd, nd, nd, nd, nd (controls 0 of 18).
GFDLNEYGIS, VIYADGRRTFYADSVK, GEAAGTFDL: -0.09, -0.18, -0.49, -0.60, -0.34, -0.27 (controls 0 of 18).
GFTLNSYGIS, VIYSDGRRTFYGDSVK, GRAAGTFDA: 0.60, 1.79, 0.87, 1.05, 1.13, 1.23 (controls 0 of 18).
GFTRNTYGIS, VIYSDGLRTAYGDSVK, GDAAVTFDS: nd, nd, nd, nd, nd, nd (controls 1 of 18).
GFDLNEYGIS, VIYSDGRRTFYGDSVK, GRTAGTFDS: -0.57, -0.44, -0.73, -0.62, -0.82, -0.34 (controls 1 of 18).
GFTLNSYGIS, VIYSDGRRTFYGDSVK, GRQAGTADS: nd, nd, nd, nd, nd, nd (controls 0 of 18).
GFWLNEYGIS, VIYSDGRRTFYHDSVK, GRAAGTFDT: 0.72, 0.55, 0.66, 0.37, 0.44, 0.68 (controls 0 of 18).
GFDLNSYGIS, VIYSDGRRTFYDDSVK, GNAAGTFDS: nd, 0.69, 0.74, 0.38, 0.29, -0.15 (controls 0 of 18).
GFTLKEYGIS, VMYSDGRRTAYKDSVK, GRAAGTFDS: 0.78, 1.19, 2.75, 1.75, 1.04, 1.07 (controls 0 of 18).
GFTSNEYGIS, VIYSDGRRTFYTDSVK, TRFAGTFDS: nd, nd, nd, nd, nd, nd (controls 0 of 18).
GFTLNSYGIS, VIYSDGRRVFYSDSVK, GRAAGTFDK: 1.69, 1.72, 1.53, 1.25, 2.50, 1.93 (controls 0 of 18).
GFTLDSYGIS, VIYSDGRRTFYGDSVK, GQAAGTFDV: 0.79, 0.57, 0.64, 1.63, 0.35, nd (controls 0 of 18).
GFTLNSYGIS, VIYSDGRRTFYGDSVK, WQAAHTFDS: nd, nd, nd, nd, nd, nd (controls 0 of 18).
GFTANSYGIS, VIYSDGRRTFYGDSVR, GRAIATFDS: nd, nd, nd, nd, nd, nd (controls 1 of 18).
GFTLNSYGIS, VIYSDGRRTFYSDSVK, GHEAGTFDS: 0.84, 0.21, 0.81, 0.36, 0.38, 0.66 (controls 0 of 18).
GFELNSYGIS, VIYSDGRRTFYSDSVK, GRVAGTFDS: 0.32, -0.01, -0.03, -0.09, 0.31, 0.23 (controls 1 of 18).
GFDLNTYGIS, VIYSDGRRTFYGDSVK, GEAAGTFDT: nd, nd, nd, nd, nd, nd (controls 0 of 18).
GFTLNEYGIS, VIYSDGRRTFYTDRVK, GKFAGTFDS: 1.30, 2.34, nd, 1.49, 1.87, 2.26 (controls 1 of 18).
GFTLNEYGIS, VIYSDGRRTFYGDSVK, GRNAGTFIS: nd, nd, nd, nd, nd, nd (controls 0 of 18).
GFTLDSYGIS, VIYSDGRRTFYGDSVK, GRAAGTFTQ: nd, nd, nd, nd, nd, nd (controls 0 of 18).
GFDLNSYGIS, VIYSDGRRTFYSDSVK, GQLAGTFDS: 0.31, -0.10, -0.32, -0.56, -0.13, 0.09 (controls 0 of 18).
GFTLNSYGIS, VIYSDGQRTFYADSVK, GRTAGTFDS: 0.95, 0.38, 0.77, nd, 1.80, -0.18 (controls 0 of 18).
GFDLNSYGIS, VIYSDGRRTFYGDQVK, GNVAGTFDS: -0.10, 0.34, 0.09, 0.20, 0.28, 0.32 (controls 0 of 18).
CFTLESYGIS, VIYADGRRTFYGDSVK, GRAAGTFDS: nd, nd, nd, nd, nd, nd (controls 0 of 18).
GFTLNSYGIS, VIYADGERTFYGDSVK, GRNAGTFDG: 1.52, 1.06, 1.47, 1.11, 1.31, 2.07 (controls 0 of 18).
MFTLNSYGIS, VIYSDGRRTFYGDSVK, GTAAGTGDS: nd, nd, nd, nd, nd, nd (controls 0 of 18).
GFTLTSYGIS, VIYSDGRRTFYQDSVK, GRAAGTFSV: nd, nd, nd, nd, nd, nd (controls 0 of 18).
GFTLNDYGIS, VIYSDGRRTFYSDSVK, GRAAGTFDS: 0.94, 1.18, 1.14, 1.76, 1.06, 1.21; 0.18, 0.43, 0.12, 0.46, 0.02, 0.13 (controls 0 of 36).
GFTLNSYGIS, VIYSDGRRTAYGDSFK, GSAAGTSDS: nd, nd, nd, nd, nd, nd (controls 0 of 18).
GFTLNSYGIS, VIYSDGRRTFYGDSVK, GRKAGTFDS: nd, nd, nd, nd, nd, nd (controls 0 of 18).
GFTLNSYGIS, VIYSDGRRTFYADSVK, GREAGTFDS: 0.00, -0.19, -0.36, -0.35, -0.45, -0.06 (controls 0 of 18).
GFTLNSYGIS, VIYSCGRRTFYGDSVK, GRGAGTFDS: nd, nd, nd, nd, nd, nd (controls 0 of 18).
GFHLNSYGIS, VIYSDGRRTFYGDSVK, GRAALTFDS: nd, nd, nd, nd, nd, nd (controls 0 of 18).
GFDLNSYGIS, VIYSDGRRTFYSDSVK, GTAGGTFDS: nd, 1.70, 0.58, 1.06, 0.73, 1.58 (controls 1 of 18).
GFNLNSYGIS, VIYSDGRRTFYADDVK, GQAAGTFDS: 2.27, 1.32, 0.90, 1.10, 1.93, 1.21 (controls 0 of 18).

Extract of 4 entries:

{"CDR-H1": "GFHLNSYGIS", "CDR-H2": "VIYSDGRRTFYGDSVK", "CDR-H3": "GRAALTFDS", "replicates, log10 nM": "nd, nd, nd, nd, nd, nd", "empty controls": "0 of 18"}
{"CDR-H1": "GFTLKEYGIS", "CDR-H2": "VMYSDGRRTAYKDSVK", "CDR-H3": "GRAAGTFDS", "replicates, log10 nM": "0.78, 1.19, 2.75, 1.75, 1.04, 1.07", "empty controls": "0 of 18"}
{"CDR-H1": "GFTSNEYGIS", "CDR-H2": "VIYSDGRRTFYTDSVK", "CDR-H3": "TRFAGTFDS", "replicates, log10 nM": "nd, nd, nd, nd, nd, nd", "empty controls": "0 of 18"}
{"CDR-H1": "GFTLDSYGIS", "CDR-H2": "VIYSDGRRTFYGDSVK", "CDR-H3": "GRAAGTFTQ", "replicates, log10 nM": "nd, nd, nd, nd, nd, nd", "empty controls": "0 of 18"}